Measured values reported in patent US11266706B2, “Method for preventing or alleviating lipid metabolism disorders using composition containing green tea extract with increased specific ingredient content” (AMOREPACIFIC CORPORATION, priority 2017, dated 2022).

Experiment: Stability of each ingredient according to time and temperature (HPLC content)
Assay type: physicochemical
Parameters: content of ingredient: unit not given here
Experimental: In order to compare the catechin contents of the fermented green tea extract, each sample was analyzed by WATERS 2695 HPLC manufactured by Alliance, and analyzed using an ODS (C18) column. The content of catechin including GCG over time maintained at 80° C. is shown in Table 1, the GCG content during this process was tracked, and the time zone in which the most amount of GCG was present was confirmed. Each numerical value in Table 1 indicates the wt % of the corresponding ingredient, based on the total weight ratio of the extract.

What does the source list for (−)-catechin gallate [CG]?
content of ingredient (Day 1 (Feb. 20, 2017)): 1.04; content of ingredient (Week 1 (Feb. 27, 2017)): 1.20; content of ingredient (Week 2 (Mar. 6, 2017)): 1.19; content of ingredient (Week 16: 45° C./Normal pressure): 1.22; content of ingredient (Week 16: Room temperature/Normal pressure): 1.21; content of ingredient (Week 25: 45° C./Normal pressure): 1.13; content of ingredient (Week 25: Refrigerated/Normal pressure): 1.12; content of ingredient (Week 25: Room temperature/Normal pressure): 1.11; stability of ingredient content over time and temperature (summary in words of Table 3, FIGS. 6 to 8): maintained relatively stably
